The record followed here is patent publication US9120797B2, “Process for preparing spirocyclic cyclohexane compounds, compositions containing such compounds and method of using such compounds” (dated 2015).

One data set relates to mice. The experiment in a line: Tail flick test in mice. Particulars: dose 1 mg/kg, % of maximum possible antinociceptive effect.
Data set [1] can be described thus: Investigations of cardiovascular tolerability. Particulars: compared with the opioids fentanyl and sufentanil.

For the compound `CC1Cc2c([nH]c3ccccc23)C2(CCC(c3ccccc3)(N(C)C)CC2)N1` (centres unmarked), the “Tail flick (mouse, i.v.) % inhibition (dose [mg/kg])” value with mice is on record as 100% (1).

Turning to `CN(C)C1(c2ccccc2)CCC2(CC1)OCCc1c2[nH]c2ccccc12` (single isomer, unassigned), the cardiovascular tolerability entry in data set [1] is “has advantages in respect of cardiovascular tolerability”.
